# Reference: patent publication US12247227B2, “Methods relating to intestinal organ-on-a-chip” (PRESIDENT AND FELLOWS OF HARVARD COLLEGE, priority 2016, dated 2025)
# System: small intestine-on-chip (primary human intestinal epithelium with or without HIMEC endothelium)
# Assay: Assessment of intestinal barrier function: apparent permeability (Papp) of fluorescent tracers from apical to basal channel
# Settings: at optimal Papp
# Text: As used herein, “differentially permeable”, e.g., in reference to an intestinal barrier, refers to the intestinal barrier displaying a resistance to the passage of certain molecules as compared to monolayers of, e.g., endothelial cells or undifferentiated intestinal epithelial cells. […] Such assays are described in the Examples herein in detail. Briefly, the apical side of the intestinal barrier is contacted with one or more tracer molecules and the concentration of the tracer later found on the basal side of the intestinal barrier.
# • PROCEDURE. […]
# Intestinal functional assessment and cytokine measurements. […] The concentration of dye that diffused through the membrane into endothelial channel was measured in the effluent, and apparent paracellular permeability (Papp) was calculated using the following formula:
# [formula] where Vrec is volume receiver (endothelial compartment), Crec concentration receiver, A the seeded area and Cdon concentration donor (epithelial compartment). Cytokines released in the medium were quantified using U-PLEX Biomarker Assays for human Fractalkine, GM-CSF, IFN-γ, IL-1α, IL-1β, IL-6, IL-8, and IL-10 (Mesoscale Discovery).
substance,measurement,value
"Dextran, Texas Red, 40,000 Da MW, Neutral",tracer leakage into the basal channel,0.1-0.2%
